Chains of the proteins cited; added tags and fusions are not shown.
UniProt P42866, whole entry, looked up: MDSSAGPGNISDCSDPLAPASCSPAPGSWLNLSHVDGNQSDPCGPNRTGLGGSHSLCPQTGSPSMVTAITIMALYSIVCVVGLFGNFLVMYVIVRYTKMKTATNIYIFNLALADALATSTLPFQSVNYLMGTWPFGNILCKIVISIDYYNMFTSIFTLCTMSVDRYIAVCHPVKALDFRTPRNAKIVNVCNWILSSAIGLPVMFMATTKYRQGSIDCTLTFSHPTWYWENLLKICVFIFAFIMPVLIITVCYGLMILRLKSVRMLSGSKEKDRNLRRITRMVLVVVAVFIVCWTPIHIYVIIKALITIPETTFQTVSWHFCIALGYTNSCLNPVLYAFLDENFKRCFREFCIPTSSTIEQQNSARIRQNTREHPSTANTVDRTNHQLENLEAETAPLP

In ChEMBL document CHEMBL1130962, “Selective alpha-1a adrenergic receptor antagonists. Effects of pharmacophore regio- and stereochemistry on potency and selectivity” (Bioorg Med Chem Lett, 1998):

Biological target: Mu-type opioid receptor (Mus musculus, UniProt P42866)
Assay: Opioid binding affinity was evaluated using [3H]DAMGO as radioligand

CCOC(=O)C1(c2ccccc2)CCNCC1
Ki: 1300 nM
